These results are taken from patent publication US20190175744A1, “INSULIN-INCRETIN CONJUGATES” (Merck Sharp & Dohme Corp., priority 2016, published 2019).

Sequences of proteins named here, by UniProt entry; tags and fusion partners are left off. Residues count along the entry.
UniProt P43220, 24-463: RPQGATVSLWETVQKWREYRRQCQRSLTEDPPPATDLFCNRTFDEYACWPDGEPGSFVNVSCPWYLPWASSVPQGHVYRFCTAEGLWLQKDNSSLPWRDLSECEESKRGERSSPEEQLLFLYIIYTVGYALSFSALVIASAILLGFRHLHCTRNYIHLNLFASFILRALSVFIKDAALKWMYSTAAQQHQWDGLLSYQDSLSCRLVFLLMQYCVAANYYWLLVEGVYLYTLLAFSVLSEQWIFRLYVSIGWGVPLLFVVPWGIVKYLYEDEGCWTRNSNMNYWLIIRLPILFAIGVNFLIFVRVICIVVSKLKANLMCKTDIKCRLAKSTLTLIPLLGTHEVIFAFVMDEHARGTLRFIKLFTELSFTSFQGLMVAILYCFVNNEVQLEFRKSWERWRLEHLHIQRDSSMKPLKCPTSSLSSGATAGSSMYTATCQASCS

The assay concerns the target human GLP1R (Homo sapiens, UniProt P43220). In words: cAMP activity assay, cells expressing human GLP1R. Format: cell-based. The conditions noted are these: Table 5, incretin peptides, read-out: hGLP1R EC50.

Usually EC50 stands for the concentration giving half of the maximal effect. For “HsQGTFTSD-K(γEγEC16)SSYLDURAAQDFV-Nle(ϵN3)-WLLNTKγE-NH2 [PEP9]”, the EC50 amounted to 0.15 nM.
The value for “HUQGTFTSD-K(γEγEC16)SKYLDURAAQDFV-Nle(ϵN3)-WLLDTKγE-NH2 [PEP22]” was 0.07 nM.
